Data: patent US12679851B2, “Methyl-substituted benzobisoxazole compound and use thereof” (TONGHUA DONGBAO PHARMACEUTICAL CO., LTD., priority 2020, dated 2026)

Sequences of proteins named here, by UniProt entry; tags and fusion partners are left off. Residues count along the entry.
UniProt P43220, 24-463 limits assumed: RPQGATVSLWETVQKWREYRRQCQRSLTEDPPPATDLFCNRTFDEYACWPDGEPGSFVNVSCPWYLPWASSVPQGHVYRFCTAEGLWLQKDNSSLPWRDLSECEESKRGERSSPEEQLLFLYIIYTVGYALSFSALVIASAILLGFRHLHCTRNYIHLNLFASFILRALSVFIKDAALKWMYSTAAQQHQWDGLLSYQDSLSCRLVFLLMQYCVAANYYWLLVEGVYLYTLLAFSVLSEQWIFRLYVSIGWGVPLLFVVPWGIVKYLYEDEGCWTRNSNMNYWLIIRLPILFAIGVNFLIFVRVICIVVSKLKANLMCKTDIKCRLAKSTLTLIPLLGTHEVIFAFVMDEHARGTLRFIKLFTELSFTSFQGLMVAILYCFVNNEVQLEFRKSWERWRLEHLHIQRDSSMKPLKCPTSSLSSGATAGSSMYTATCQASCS

Target: GLP-1 receptor (Homo sapiens, UniProt P43220)
Test: Cell activity test in vitro (cAMP detection, GLP-1 HEK293 cells)
Conditions: read-out: Human-GLP 1, EC50, HEK293 host cell
Method: The cells were constructed by Wuxi New Drug Development Co., Ltd. Shanghai.
The compound was formulated with DMSO to a working concentration of 30 μM. In this test, the usage amount of each sample was 5 μL.
The pH was adjusted to 7.4 and the volume was fixed to 25 mL with HBSS 1×.
Preparation of cAMP detection reagent: 250 μL of cAMP-D2 and 250 μL of anti-cAMP cryptate reagent were added to 4 mL of lysis buffer, and mixed gently.
The test compound was diluted 3 times by 10 points with a starting concentration of 30 μM, and the dilutions were completed by Bravo.
The reference compound exenatide was diluted 3 times by 10 points with a starting concentration of 500 nM, and the dilutions were completed by Bravo. […]
The TopSeal-A was removed, and the EnVision reading was performed.

| SMILES | EC50 |
| --- | --- |
| CC1(c2ccc(Cl)cc2F)Oc2cccc(C3=CCN(Cc4nc5cc(C(=O)O)sc5n4C[C@@H]4CCO4)CC3)c2O1 (some centres unmarked) | 8.63 nM |
| CC1(c2ccc(Cl)cc2F)Oc2cccc(C3=CCN(Cc4nc5sc(C(=O)O)cc5n4C[C@@H]4CCO4)CC3)c2O1 (some centres unmarked) | 1.16 nM |
